Results on one compound are retold here after US7307083B2, “Tetrahydro-acridine and dithiolane derivatives” (priority 2005, dated 2007).

By UniProt entry, the sequences of proteins in these tests, tags left out. Residues count along the entry.
UniProt P06276, 29-602 limits assumed: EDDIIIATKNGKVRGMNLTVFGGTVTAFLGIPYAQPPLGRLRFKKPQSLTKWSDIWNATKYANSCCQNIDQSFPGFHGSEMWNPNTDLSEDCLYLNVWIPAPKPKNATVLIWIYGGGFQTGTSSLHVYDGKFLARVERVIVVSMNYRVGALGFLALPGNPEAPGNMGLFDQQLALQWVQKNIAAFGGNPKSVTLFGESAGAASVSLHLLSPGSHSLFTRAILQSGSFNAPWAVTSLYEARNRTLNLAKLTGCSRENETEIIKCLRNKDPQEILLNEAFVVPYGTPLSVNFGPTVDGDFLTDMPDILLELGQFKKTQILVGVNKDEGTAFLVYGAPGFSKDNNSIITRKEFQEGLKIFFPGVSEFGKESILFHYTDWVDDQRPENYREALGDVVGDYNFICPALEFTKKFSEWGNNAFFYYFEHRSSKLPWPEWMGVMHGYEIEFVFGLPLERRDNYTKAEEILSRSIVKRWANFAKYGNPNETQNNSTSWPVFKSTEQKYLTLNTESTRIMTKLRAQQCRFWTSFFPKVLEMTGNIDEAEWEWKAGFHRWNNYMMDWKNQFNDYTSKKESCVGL
UniProt P22303, 32-614 limits assumed: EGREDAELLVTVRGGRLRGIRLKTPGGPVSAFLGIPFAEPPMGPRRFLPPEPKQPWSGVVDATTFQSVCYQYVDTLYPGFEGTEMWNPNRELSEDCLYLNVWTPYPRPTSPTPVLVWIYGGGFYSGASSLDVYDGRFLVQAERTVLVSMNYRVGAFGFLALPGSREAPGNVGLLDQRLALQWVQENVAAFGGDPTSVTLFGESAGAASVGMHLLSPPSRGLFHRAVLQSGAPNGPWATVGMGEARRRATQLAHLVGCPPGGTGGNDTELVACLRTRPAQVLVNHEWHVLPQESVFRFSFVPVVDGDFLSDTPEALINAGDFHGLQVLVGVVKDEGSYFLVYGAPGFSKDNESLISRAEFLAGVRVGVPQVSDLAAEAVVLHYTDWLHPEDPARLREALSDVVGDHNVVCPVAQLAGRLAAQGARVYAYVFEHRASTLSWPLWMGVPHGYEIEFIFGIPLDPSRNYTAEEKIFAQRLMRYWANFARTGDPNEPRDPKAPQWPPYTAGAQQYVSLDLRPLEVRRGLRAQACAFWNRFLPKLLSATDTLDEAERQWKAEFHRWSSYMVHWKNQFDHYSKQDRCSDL

Experiment [1] has as its target butyrylcholinesterase (BChE) from human serum (Homo sapiens, UniProt P06276). Briefly: Inhibiting power on BChE (Ellman spectrophotometric method). The format is biochemical. The settings on record: read-out: IC50 BChE, mean of two independent measurements, each in duplicate. A general note: In Ellman's method for cholinesterases, released thiocholine reacts with DTNB.

Experiment [2] concerns the target human recombinant acetylcholinesterase (AChE or HuAChE) (Homo sapiens, UniProt P22303). The conditions noted are these: read-out: IC50 AChE, mean of two independent measurements, each in duplicate.

In general, IC50 refers to the concentration that inhibits the measured activity by half. With `Nc1c2c(nc3cc(Cl)ccc13)CC(CNC(=O)CC1CCSS1)CC2` (centres unmarked), the IC50 in experiment [1] was 2580 nM; in experiment [2], 215 nM.
